AlphaSeq binding of Ab-14 heavy chain variants to a spike HR2 peptide

Antigen: PDVDLGDISGINAS, a 14-residue peptide of the SARS-CoV-2 spike HR2 region.

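The parent was found by panning a naive human phage display library on the peptide. In library AAYL49, one, two or three CDR residues were substituted; doubles and triples were drawn at random. In AlphaSeq, yeast of one mating type display the scFv and yeast of the other type display the target. Binding brings cells together so that they mate, and sequencing counts the barcode pairs among the diploids. A regression on co-assayed BCL2-family reference pairs converts the normalised counts of each replicate to an apparent Kd. The assay was run in three technical replicates.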

Ab-14 is the parent antibody, in scFv form: VH, then the linker GGGGSGGGGSGGGGS, then VL. The light chain is unchanged in all variants.
VH: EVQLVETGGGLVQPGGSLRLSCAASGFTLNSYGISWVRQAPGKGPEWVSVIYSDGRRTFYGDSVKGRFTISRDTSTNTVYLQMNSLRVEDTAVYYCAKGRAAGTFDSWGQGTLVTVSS
VL: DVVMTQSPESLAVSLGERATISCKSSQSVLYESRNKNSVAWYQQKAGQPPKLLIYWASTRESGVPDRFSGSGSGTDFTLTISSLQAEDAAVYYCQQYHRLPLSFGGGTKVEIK

Each variant is given by its three heavy chain CDRs, as the data file delimits them; those of the parent are GFTLNSYGIS, VIYSDGRRTFYGDSVK, GRAAGTFDS.
The read-out is the apparent dissociation constant on a log10 scale (nM): the lower, the stronger.
Averages over replicates are reported, and they cover detected replicates only.
Where no diploid with the target was found in any replicate, the entry reads "nd": below detection, most likely a poor binder, though not proof of it.
Parent in this assay: reference entry 0.65, copy in this library 4.11 (one replicate of three).

{"CDR-H1": "GFTANSYGIK", "CDR-H2": "VIYSDGRRTFYHDSVK", "CDR-H3": "GRAAGTFDS", "mean log10 Kd (nM)": "4.65", "seen in": "1 of 3"}
{"CDR-H1": "GFTLNSYGTS", "CDR-H2": "VIYSDGRRAFYGDLVK", "CDR-H3": "GRAAGTFDS", "mean log10 Kd (nM)": "4.32", "seen in": "1 of 3"}
{"CDR-H1": "GFGLNSYGIS", "CDR-H2": "VIISMGRRTFYGDSVK", "CDR-H3": "GRAAGTFDS", "mean log10 Kd (nM)": "nd", "seen in": "0 of 3"}
{"CDR-H1": "GFTLNSYGIS", "CDR-H2": "VSESDGRRTFYGDSVK", "CDR-H3": "GRASGTFDS", "mean log10 Kd (nM)": "5.35", "seen in": "2 of 3"}
{"CDR-H1": "GFPLNSYGIS", "CDR-H2": "VIYSWGRRTFYGDSVK", "CDR-H3": "SRAAGTFDS", "mean log10 Kd (nM)": "nd", "seen in": "0 of 3"}
{"CDR-H1": "LFTLNSYGIS", "CDR-H2": "APYSDGRRTFYGDSVK", "CDR-H3": "GRAAGTFDS", "mean log10 Kd (nM)": "nd", "seen in": "0 of 3"}
{"CDR-H1": "GFTANSYGIS", "CDR-H2": "VIYSCGHRTFYGDSVK", "CDR-H3": "GRAAGTFDS", "mean log10 Kd (nM)": "3.95", "seen in": "1 of 3"}
{"CDR-H1": "GFTLRSYQIS", "CDR-H2": "VIYSDGRRPFYGDSVK", "CDR-H3": "GRAAGTFDS", "mean log10 Kd (nM)": "4.67", "seen in": "3 of 3"}
{"CDR-H1": "GFTLNSYQIS", "CDR-H2": "VIYSDGRRIFYGDSVK", "CDR-H3": "GRAAGTFMS", "mean log10 Kd (nM)": "nd", "seen in": "0 of 3"}
{"CDR-H1": "GFTLNSSKIS", "CDR-H2": "VDYSDGRRTFYGDSVK", "CDR-H3": "GRAAGTFDS", "mean log10 Kd (nM)": "nd", "seen in": "0 of 3"}
{"CDR-H1": "DFTLNSYGIS", "CDR-H2": "VIYSDGRRTFYGSSVK", "CDR-H3": "GRAAGTFDF", "mean log10 Kd (nM)": "nd", "seen in": "0 of 3"}
{"CDR-H1": "GFTLNSYGIS", "CDR-H2": "VIYSDGRRTFYDDSVK", "CDR-H3": "GRWAHTFDS", "mean log10 Kd (nM)": "3.34", "seen in": "1 of 3"}
{"CDR-H1": "GFTLNSVGIQ", "CDR-H2": "VIYSDGRRTFYGDSVK", "CDR-H3": "GRKAGTFDS", "mean log10 Kd (nM)": "nd", "seen in": "0 of 3"}
{"CDR-H1": "GFTLNSYGIS", "CDR-H2": "VSYSSGRRCFYGDSVK", "CDR-H3": "GRAAGTFDS", "mean log10 Kd (nM)": "nd", "seen in": "0 of 3"}
{"CDR-H1": "GFTLNSYGDS", "CDR-H2": "VIYSDGRRTFLGDSVP", "CDR-H3": "GRAAGTFDS", "mean log10 Kd (nM)": "nd", "seen in": "0 of 3"}
{"CDR-H1": "GFTLHSYWTS", "CDR-H2": "VIYSDGRRTFYGDSVK", "CDR-H3": "GRAAGTFDS", "mean log10 Kd (nM)": "3.76", "seen in": "1 of 3"}
{"CDR-H1": "GFTLNSYGWS", "CDR-H2": "VIYSDGRRTSYGDSVD", "CDR-H3": "GRAAGTFDS", "mean log10 Kd (nM)": "nd", "seen in": "0 of 3"}
{"CDR-H1": "GFTLNSYGIS", "CDR-H2": "AIYSDGRRTFQGDSAK", "CDR-H3": "GRAAGTFDS", "mean log10 Kd (nM)": "5.66", "seen in": "2 of 3"}
{"CDR-H1": "GHTLNSYGIS", "CDR-H2": "VIYSDGRATFYGDSVK", "CDR-H3": "GRAAGTFDS", "mean log10 Kd (nM)": "3.96", "seen in": "2 of 3"}
{"CDR-H1": "GFTLNSKGIS", "CDR-H2": "VIYADGRRTFYGDSVK", "CDR-H3": "GRAMGTFDS", "mean log10 Kd (nM)": "3.13", "seen in": "3 of 3"}
{"CDR-H1": "GFTLNSYVIS", "CDR-H2": "VIYSDKRRTFYGDSQK", "CDR-H3": "GRAAGTFDS", "mean log10 Kd (nM)": "nd", "seen in": "0 of 3"}
{"CDR-H1": "GFTLCSYGIS", "CDR-H2": "VINSDGRRTAYGDSVK", "CDR-H3": "GRAAGTFDS", "mean log10 Kd (nM)": "4.26", "seen in": "2 of 3"}
{"CDR-H1": "GFCLNSYGIS", "CDR-H2": "VIYSDERRTFYGDRVK", "CDR-H3": "GRAAGTFDS", "mean log10 Kd (nM)": "4.26", "seen in": "1 of 3"}
{"CDR-H1": "GFELNSYGIS", "CDR-H2": "VIHSDGRRTFYGDSVK", "CDR-H3": "GRTAGTFDS", "mean log10 Kd (nM)": "1.05", "seen in": "3 of 3"}
{"CDR-H1": "GFTLMVYGIS", "CDR-H2": "VIYSDGRRDFYGDSVK", "CDR-H3": "GRAAGTFDS", "mean log10 Kd (nM)": "nd", "seen in": "0 of 3"}
{"CDR-H1": "DFTLNSYDIS", "CDR-H2": "MIYSDGRRTFYGDSVK", "CDR-H3": "GRAAGTFDS", "mean log10 Kd (nM)": "nd", "seen in": "0 of 3"}
{"CDR-H1": "GFTLNSYGIS", "CDR-H2": "VIYSDGRRSFYGDSVK", "CDR-H3": "GRSAGTFDS", "mean log10 Kd (nM)": "1.80", "seen in": "3 of 3"}

The closing 3 entries, repeated:

{"CDR-H1": "GFTLMVYGIS", "CDR-H2": "VIYSDGRRDFYGDSVK", "CDR-H3": "GRAAGTFDS", "mean log10 Kd (nM)": "nd", "seen in": "0 of 3"}
{"CDR-H1": "DFTLNSYDIS", "CDR-H2": "MIYSDGRRTFYGDSVK", "CDR-H3": "GRAAGTFDS", "mean log10 Kd (nM)": "nd", "seen in": "0 of 3"}
{"CDR-H1": "GFTLNSYGIS", "CDR-H2": "VIYSDGRRSFYGDSVK", "CDR-H3": "GRSAGTFDS", "mean log10 Kd (nM)": "1.80", "seen in": "3 of 3"}

Nonspecific signal, from three strains lacking the peptide, appeared in 15% of pairings of library AAYL49, centred on 4.06 (5% of these signals below 2.83); values are not corrected for it.

Reference: Engelhart et al. 2022, doi:10.1038/s41597-022-01779-4. File: FLAb, binding data.